# Patent US7347984B2, “Mammalian agmatinase inhibitory substance” (Jackson State University, priority 2004, dated 2008)
# Test system: rat brain NMDA receptor
# Experiment: [3H]-MK801 binding assay in rat brain membranes
# Conditions: Conc = 0.1 mM
# Procedure: The binding of [^3H]-MK801 to NMDA (N-methyl-D-aspartate) receptors was measured in rat brain membranes as described in Renolds et al. (1990). Briefly, the membranes were incubated in HEPES buffer (pH 7.4) containing 0.4 nM [^3H]-MK801, 100 μM glutamate, and 30 μM glycine for 1 hour at 25° C. The binding was terminated by rapid filtration over glass fiber filters and radioactivity counted. Nonspecific binding was defined using 50 μM unlabelled MK801.
# QSAR were studied by ab initio Hartree-Fock calculations with the Gaussian 94 computer program (Frisch et al. 1995). Based on the optimized geometry and van der Waals radius of each atom, calculations were performed with BlogP and BlogW programs (Bodor et al. 1989, 1992A, and 1992B) to determine molecular surfaces, volumes, ovalities, partition coefficients, and water solubilities. Linear combinations of these calculated descriptors were then fitted to the observed enzyme activities. The observed activities were the remaining percentage of rat agmatinase activity at 0.5 mM of each compound, the remaining percentage of rat NOS isozyme activity at 1 mM of each compound, and the remaining percentage of rat brain NMDA receptor binding at 0.1 mM of each compound.
substance,measurement,value
Trans-4-Aminocyclohexyl guanidine,3H-MK801 Binding Remaining (%),97.3%
